# Source: US7589121B2, “Use of furan alkyls for preparing a drug for treating obesity and cosmetically treating overweight” (priority 2004, dated 2009)
# System: GSH-S-transferase (target PXR)
# Assay: Analysis of mRNAs in the muscles and BAT: GSH-S-transferase
# Assay type: in vivo, mice
# Details: TZD
# Experimental: In the brown adipose tissue (BAT) and in the muscles, the mRNA expression of 3 genes was determined in 5 mice of each group by real-time Q-RTR-PCR analysis.
smiles,measurement,value
"CN(CCOc1ccc(CC2SC(=O)NC2=O)cc1)c1ccccn1 (stereo not shown) [TZD, Rosiglitazone]","GSH-S-transferase (target PXR) mRNA, MUSCLE/BAT",⇑
